Results: paper PMC10993414, “Water Quality Monitoring with the Multiplexed Assay MitoOxTox for Mitochondrial Toxicity, Oxidative Stress Response, and Cytotoxicity in AREc32 Cells” (Environmental Science & Technology, 2024)

Columns and labels:
AREc32 cells [1] = conditions: human
AREc32 cells [2] = test: Cytotoxicity with ImageXpress high-content imaging, MitoOxTox; conditions: cell viability, AREc32, 24 h
AREc32 cells [3] = conditions: human; remark: listed apart in the source

Question: Which results are given for Oligomycin A?
Answer: Cytotoxicity Incucyte IC10 (AREc32 cells [1]): 1.58 nM; Cytotoxicity Incucyte log(IC10 (M)) (AREc32 cells [1]): -8.80; IC10 (AREc32 cells [2]): 1.8 nM; Cytotoxicity ImageExpress IC10 (AREc32 cells [3]): 1.81 nM; Cytotoxicity ImageExpress log(IC10 (M)) (AREc32 cells [3]): -8.74 M
